Test results as given in patent publication US6958335B2, “Treatment of gastrointestinal stromal tumors” (Novartis AG, priority 2000, dated 2005).

Test system: unresectable and/or metastatic malignant gastrointestinal stromal tumors (GIST)
Conditions: All doses (N = 147)
Protocol: A phase 2, open-label, randomized multinational study was conducted in patients with unresectable and/or metastatic malignant gastrointestinal stromal tumors (GIST). […] The primary evidence of efficacy was based on objective response rates, and the time to response, duration of response, time to treatment failure and survival were also evaluated. Tumors were required to be measurable in at least one site of disease, and response characterization based on Southwestern Oncology Group (SWOG) criteria.

Q: For `CS(=O)(=O)O.Cc1ccc(NC(=O)c2ccc(CN3CCN(C)CC3)cc2)cc1Nc1nccc(-c2cccnc2)n1` [SALT I], which “Best response: Progressive disease” value is on record?
A: Its value is 18 (12.2) n (%).
